Tested on: Caco-2 cells
Assay: Intestinal barrier function improvement: suppression of cytokine-induced TEER reduction in Caco-2 monolayer
Assay type: cell-based, human
Description: Caco-2 cells were cultured for three weeks at 37° C. in Transwell (manufactured by Millicell Corporation) using DMEM (Dulbecco's modified Eagle's medium). A medium was removed from a plate of cultured Caco-2 cells, and the well was washed 3 times with serum-free DMEM. The well was filled with the medium. Then, the transepithelial electrical resistance (TEER) of Caco-2 monolayer cells was measured by Millicell-ERS (manufactured by Millipore Corporation). Cells (TEER≥1000 Ω·cm^2) determined that a sufficient tight junction was formed were selected, and used for the next screening. Then, to test solutions (media) on both apical and basolateral membrane sides, a sample, TNFα (40 ng/mL), IL-1β (20 ng/mL), and IFNγ (10 ng/mL) were added, followed by cultivating for 48 hours. […] After the cultivation, TEER was measured again, to evaluate whether the sample suppressed the reduction (decrease) of TEER due to the inflammatory cytokine.
The TEER reduction suppression ratio (%) due to the sample was determined according to the following formula from the TEER values of the well to which the sample was added, normal, and control. […]
The intestinal barrier function improvement action was evaluated by the same method (the method for evaluating intestinal barrier function improvement action described in Example 4) as that in Example 4. […]

Catechin gallate was tested, and the “Relative value of TEER reduction suppression ratio of gallate type compound (non-gallate type compound taken as 1)” value (10 μM, gallate vs non-gallate in the same evaluation) was 2.7 and the “TEER reduction suppression ratio (%)” value (sample 10 μM, TNFα 40 ng/mL, IL-1β 20 ng/mL, IFNγ 10 ng/mL, 48 hours, Table 2) was 40%.
